# From patent publication EP4129319A1, “PORE-FORMING ANTIMICROBIAL PEPTIDES” (priority 2021, dated 2023)
# Columns and labels:
# Calcein leakage assay = format: biochemical; details: POPC:POPG (1:1 mol/mol) LUVs
# Method: Chemicals. […] (Prague, Czech Republic), and Caslo ApS (Kongens Lyngby, Denmark). […] The bacterial stock was stored at -80°C.
# Calcein leakage assay. Pore-forming activity of the peptides was tested by their ability to leak the self-quenching fluorescent dye calcein entrapped within POPC:POPG (1:1 mol/mol) large unilamellar vesicles (LUVs). After mixing DiD to the lipid mixture (in the ratio 1:500 mol/mol), a thin lipid film was created by evaporating of the chloroform, traces of which were removed by desiccating overnight. The lipid film was then dissolved in calcein buffer, followed by vigorous vortexing. The lipid suspension was subsequently subjected to 10 freeze-thaw cycles. To obtain uniform LUVs, the sample was passed 50 times back and forth through an extruder stacked with 100 nm pore size polycarbonate membrane filter. Afterwards, the untrapped calcein was removed on a HiTrap Desalting Column (with Sephadex G-25 Superfine resin) by washing with PBS buffer. The concentration of the lipid suspension was then adjusted to 0.02 mM. The concentration of the peptide solution was 0.1 mM. The inventors monitored the peptide-induced release of calcein from LUVs by the increase in fluorescence intensity after adding increasing amounts of peptides to the LUVs under constant stirring at 25 °C. The investigated range of peptide/lipid molecular ratio was from 1:100 to 1:10. The excitation and emission wavelengths were set to 495 nm and 520 nm, respectively. Maximum fluorescence intensity was obtained by disrupting all the vesicles in the end by adding 10% Triton X-100. Experiments were performed in triplicates with independently prepared lipid vesicles.
# [1] = Neutral red uptake assay (cytotoxicity); format: cell-based; details: highest tested concentration 150 µM; read-out: cytotoxic concentration against human dermal fibroblasts (no effect on viability up to)
# Method: Neutral red uptake assay. To evaluate the cytotoxicity of the peptides against human dermal fibroblast (HDF) cell lines, the inventors purchased the neutral red uptake assay from Essence Line (Praha, Czech Republic). The initial cell culture was sub-cultured in supplemented Dulbecco's Modified Eagle Medium (DMEM) and diluted to a cell density of 1 × 10^5 cells/mL. The diluted culture was then seeded into the wells (1 × 10^4
substance,measurement,setting,value
KKKKVKKVVKKVFSFVDSVDSDVSDVKKKK-NH2 [KDFC16+9SV-NH2],Extent of leakage (in percentage) at increasing peptide-to-lipid ratio (mol/mol) 1:10,Calcein leakage assay; peptide-to-lipid ratio 1:10 (mol/mol),No leakage
same,Extent of leakage (in percentage) at increasing peptide-to-lipid ratio (mol/mol) 1:20,Calcein leakage assay; peptide-to-lipid ratio 1:20 (mol/mol),No leakage
same,Extent of leakage (in percentage) at increasing peptide-to-lipid ratio (mol/mol) 1:50,Calcein leakage assay; peptide-to-lipid ratio 1:50 (mol/mol),No leakage
same,Extent of leakage (in percentage) at increasing peptide-to-lipid ratio (mol/mol) 1:100,Calcein leakage assay; peptide-to-lipid ratio 1:100 (mol/mol),No leakage
same,CC50,[1],> 150 µM

# Ends that are not written are not given here.
